Patent US9675538B2, “Anti-aging agent containing arctigenin derivative” (ROHTO Pharmaceutical Co., Ltd., priority 2012, dated 2017)

Test system: B16F10 melanoma cells
Conditions: 0.1% (w/v), 72 hours, compared with arctigenin

Substance: Arctigenin Propionate [Example 2]
- cell toxicity (cell survival rate): lower in cell toxicity
